The text below walks through data of patent US11065253B2, “Arylquinazolines” (Merck Patent GmbH, priority 2013, dated 2021).

This experiment deals with phospho-serine 2056 DNA-PK in HCT116 cells. The experiment can be described thus: DNA-PK phosphorylation at serine 2056 (cellular), ELISA in bleomycin-treated HCT116 cells. To be noted: class symbols A-D, read-out: IC50 pDNA-PK. The experiment is classed as cell-based. On the procedure:
HCT116 cells were cultivated at 37° C. and 10% CO2 in MEM alpha medium with 10% of foetal calf serum and 2 mM glutamine. The cells were detached from the base of the culture vessels with the aid of trypsin/EDTA, centrifuged off in centrifuge tubes, taken up in fresh medium, and the cell density was determined. 100,000 cells were sown in 1 ml of culture medium per cavity of a 24-well cell culture plate and cultivated overnight. Next day, 10 μM bleomycin (DNA intercalator and inductor of DNA double-strand breaks) and test substances in fresh culture medium were added to the cells, and these were cultivated for a further six hours. […] The 96-well ELISA plates were subsequently treated with a detection antibody (Abcam ab79444: total DNA-PK) and a streptavidin-HRP conjugate. The development of the enzymatic reaction was carried out with the aid of a chemiluminescent reagent, the chemiluminescence was measured with the aid of a Mithras LB940. The signals with the phospho-DNA-PK-specific antibody were standardised to the signal with the antibody against the total protein DNA-PKc. […] The DMSO control was used as blank.

Turning to `COc1ccc(C(O)c2cc(-c3ncnc4cc(N5CCOCC5)ccc34)c(F)cc2F)nn1` (stereo not shown) [Example 130, [2,4-Difluoro-5-(7-morpholin-4-yl-quinazolin-4-yl)-phenyl]-(6-methoxy-pyridazin-3-yl)-methanol], the IC50 (commonly the concentration that inhibits the measured activity by half) was less than 500 nM.
